The source of these data is publication PMC12228764 (Nature Communications, 2025).

Assay [1] concerns the target INTS2 in the reconstituted DSS1–INTAC complex (human). The assay is described as follows: cryo-EM structure.
The target of assay [2] is INTS7 in the reconstituted DSS1–INTAC complex (human). The assay is described as follows: cryo-EM structure.

B1: DSS1 in the reconstituted DSS1–INTAC complex (pLVX-DSS1-WT co-expressed with INTS1 to INTS14) (natural protein)
chain: MSEKKQPVDLGLLEEDDEFEEFPAEDWAGLDEDEDAHVWEDNWDDDNVEDDFSNQLRAELEKHGYKMETS
In the case of B1, the binding result in assay [1] and in assay [2] was “binds” each time.
